Test results: patent publication US20230321108A1, “UNIT DOSAGE COMPOSITION OF AKT INHIBITOR” (NANJING CHIA TAI TIANQING PHARMACEUTICAL CO., LTD., priority 2020, published 2023)

Protein sequences, listed by entry. Tags and fused reporters are not part of them. Lines headed by an entry give the natural chain unless they say otherwise; changes in a name come on top.
UniProt P31749: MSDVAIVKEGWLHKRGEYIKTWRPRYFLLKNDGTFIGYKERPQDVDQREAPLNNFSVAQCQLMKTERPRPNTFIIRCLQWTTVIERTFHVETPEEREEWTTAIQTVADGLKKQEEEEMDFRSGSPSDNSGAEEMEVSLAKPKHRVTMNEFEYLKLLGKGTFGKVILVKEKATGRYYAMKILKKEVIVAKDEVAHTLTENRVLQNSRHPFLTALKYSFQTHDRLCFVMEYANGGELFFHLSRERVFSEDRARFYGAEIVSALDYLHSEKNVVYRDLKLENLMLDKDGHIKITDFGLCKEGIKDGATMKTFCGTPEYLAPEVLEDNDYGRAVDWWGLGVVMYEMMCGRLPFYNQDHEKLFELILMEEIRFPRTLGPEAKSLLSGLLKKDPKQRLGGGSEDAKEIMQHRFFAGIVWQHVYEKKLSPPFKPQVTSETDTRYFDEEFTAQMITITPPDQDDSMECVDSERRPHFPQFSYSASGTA
UniProt P31751: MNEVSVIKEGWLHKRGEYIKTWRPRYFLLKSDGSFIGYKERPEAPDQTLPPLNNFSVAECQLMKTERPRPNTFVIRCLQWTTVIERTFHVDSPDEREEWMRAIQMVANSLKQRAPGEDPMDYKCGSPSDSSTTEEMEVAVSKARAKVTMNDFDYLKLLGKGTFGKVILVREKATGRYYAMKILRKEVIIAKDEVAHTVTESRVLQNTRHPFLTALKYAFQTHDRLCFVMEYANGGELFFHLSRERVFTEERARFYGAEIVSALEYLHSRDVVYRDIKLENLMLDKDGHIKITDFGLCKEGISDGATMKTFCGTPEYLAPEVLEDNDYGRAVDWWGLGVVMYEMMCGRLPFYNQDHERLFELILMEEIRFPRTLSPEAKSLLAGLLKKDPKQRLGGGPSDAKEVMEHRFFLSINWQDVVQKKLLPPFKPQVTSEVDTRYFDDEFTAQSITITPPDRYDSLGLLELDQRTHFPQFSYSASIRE

How the values were obtained:
[1] = target: AKT1 (Homo sapiens (Human), UniProt P31749); assay: AKT kinase activity assay (HTRF kinEASE TK), AKT1; type: biochemical; settings: 2 µM ATP
[2] = target: AKT2 (Homo sapiens (Human), UniProt P31751); assay: AKT kinase activity assay (HTRF kinEASE TK), AKT2; type: biochemical; settings: AKT2 enzyme activity IC50, HTRF, 20 µM ATP
Description: The substrate and ATP were respectively diluted with the 1× kinase reaction buffer to a concentration 5 times the reaction concentration.
A 5× enzyme working solution was prepared from the 1× kinase reaction buffer.
A 4× streptavidin-XL665 working solution was prepared from the assay buffer.
4× europium-labeled tyrosine kinase substrate antibody working solution The europium-labeled tyrosine kinase substrate antibody was 100-fold diluted with the assay reaction buffer to obtain a working solution.
After all the reagents were prepared according to the above method, except for the enzyme, the reagents were equilibrated to the room temperature and loaded.
b) 2 µL of previously prepared TK-biotin substrate solution (the concentration of the substrate for enzyme screening is shown in Table 1) was placed in each reaction well.
The plate was sealed with a sealing film, and the reaction solution was mixed until uniform and incubated at the room temperature for 10 min to allow the compound to fully react with and bind to the enzyme.
d) 2 µL of ATP solution was placed in each reaction well to initiate a kinase reaction (the concentration of ATP for enzyme screening and reaction time are shown in Table 1).
e) 5 min before the kinase reaction was completed, an assay solution was prepared. […]

[3] = AKT1 enzyme activity IC50, HTRF

SMILES | IC50 ([1]; HTRF, read-out: AKT1 enzyme activity IC50) | IC50 [1, 3] | IC50 [2]
C[C@@H]1CC(=O)Nc2ncnc(N3CCN(C(=O)[C@H](CNC4CC4)c4ccc(Cl)cc4)[C@H]4C[C@H]43)c21 (single isomer, unassigned) [Isomer 1 of Example 1] | 62 nM |  | 
C[C@@H]1CC(=O)Nc2ncnc(N3CCN(C(=O)[C@H](CNC4CC4)c4ccc(Cl)cc4)[C@H]4C[C@H]43)c21 (single isomer, unassigned) [Isomer 1 of Example 2] |  | 442 nM | 1000 nM
C[C@@H]1CC(=O)Nc2ncnc(N3CCN(C(=O)[C@H](CNC4CC4)c4ccc(Cl)cc4)[C@@H]4C[C@@H]43)c21 [Isomer 2 of Example 2, (R)-4-((1S,6R)-5-((S)-2-(4-chlorophenyl)-3(cyclopropylamino)propionyl)-2,5-diazabicyclo[4.1.0]heptan-2-yl)-5-methyl-5,8-dihydropyrido[2,3-d]pyrimidin-7(6H)-one] |  | 0.65 nM | 

Read-outs that look alike come from different tables or passages of the source.
